Legend:
[1] = biological target: T1, Serine/threonine-protein kinase Nek2 (Homo sapiens, UniProt P51955)
T1 sequence (P51955 whole entry): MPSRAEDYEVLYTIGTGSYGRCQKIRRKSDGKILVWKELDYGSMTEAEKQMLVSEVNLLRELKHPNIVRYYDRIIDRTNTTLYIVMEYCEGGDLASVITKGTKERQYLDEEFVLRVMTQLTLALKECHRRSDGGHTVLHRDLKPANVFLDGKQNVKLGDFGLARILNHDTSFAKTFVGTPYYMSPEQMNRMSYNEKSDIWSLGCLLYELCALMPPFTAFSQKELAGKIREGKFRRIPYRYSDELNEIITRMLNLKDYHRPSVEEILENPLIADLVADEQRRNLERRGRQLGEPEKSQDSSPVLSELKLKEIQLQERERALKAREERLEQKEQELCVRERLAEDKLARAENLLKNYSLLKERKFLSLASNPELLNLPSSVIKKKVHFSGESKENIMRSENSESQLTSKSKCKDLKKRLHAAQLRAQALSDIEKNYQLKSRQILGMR

[2] = biological target: T1, Serine/threonine-protein kinase Nek2; remark: listed apart in the source
[3] = biological target: T1, Serine/threonine-protein kinase Nek2; remark: listed apart in the source

| SMILES | IC50 [1] | IC50 [2] | IC50 [3] |
| --- | --- | --- | --- |
| COc1cc(-c2cnc(N)c(-c3ccc(C(=O)O)c(C)c3)n2)cc(OC)c1OC | 2600 nM | 1200 nM | 2300 nM |
| COc1cc(-c2nc(-c3cc(OC)c(OC)c(OC)c3)cnc2N)ccc1C(=O)O | 2400 nM | 1300 nM | 2500 nM |
| CCOc1cc(-c2nc(-c3cc(OC)c(OC)c(OC)c3)cnc2N)ccc1C(=O)O | 16900 nM |  |  |
| COc1cc(-c2cnc(N)c(-c3ccc(C(=O)O)cc3)n2)cc(OC)c1OC | 2300 nM |  |  |
| COc1cccc(-c2cnc(N)c(N3CCC(C(=O)O)CC3)n2)c1 | 4200 nM |  |  |

Second part, the compound after the results:

| IC50 [1] | IC50 [2] | IC50 [3] | SMILES |
| --- | --- | --- | --- |
| 870 nM | 410 nM | 940 nM | COc1cc(-c2cnc(N)c(N3CCC(C(=O)O)CC3)n2)cc(OC)c1OC |
| 1500 nM |  |  | CC[C@H]1CN(c2nc(-c3cc(OC)c(OC)c(OC)c3)cnc2N)CC[C@H]1C(=O)O (racemic) |

Source: ChEMBL document CHEMBL1275342 (J Med Chem, 2010)
